{"source": "patent US12195463B2", "about": "(priority 2018, dated 2025)", "target": "Mu opiate receptor (Homo sapiens, UniProt P35372)", "experiment": "Receptor binding, Mu opiate receptor", "settings": "qualitative statement", "data": [{"compound": "O=C1CN2c3c(cccc3[C@H]3CN(CCCOc4ccc(F)cc4)CC[C@H]32)N1", "note": "[Example 1, (6bS,10aR)-8-(3-(4-fluorophenoxy)propyl)-6b,7,8,9,10,10a-hexahydro-1H-pyrido[3′,4′:4,5]pyrrolo[1,2,3-de]quinoxalin-2(3H)-one]", "values": [{"measurement": "mu receptor activity, in words", "value": "only weak mu receptor activity"}]}]}
